Measured values reported in patent US20140308678A1 (ONCOTHERAPY SCIENCE, published 2014).

Protein sequences, listed by entry. Tags and fused reporters are not part of them. Residues count along the entry.
UniProt P08238, 2-724 limits assumed: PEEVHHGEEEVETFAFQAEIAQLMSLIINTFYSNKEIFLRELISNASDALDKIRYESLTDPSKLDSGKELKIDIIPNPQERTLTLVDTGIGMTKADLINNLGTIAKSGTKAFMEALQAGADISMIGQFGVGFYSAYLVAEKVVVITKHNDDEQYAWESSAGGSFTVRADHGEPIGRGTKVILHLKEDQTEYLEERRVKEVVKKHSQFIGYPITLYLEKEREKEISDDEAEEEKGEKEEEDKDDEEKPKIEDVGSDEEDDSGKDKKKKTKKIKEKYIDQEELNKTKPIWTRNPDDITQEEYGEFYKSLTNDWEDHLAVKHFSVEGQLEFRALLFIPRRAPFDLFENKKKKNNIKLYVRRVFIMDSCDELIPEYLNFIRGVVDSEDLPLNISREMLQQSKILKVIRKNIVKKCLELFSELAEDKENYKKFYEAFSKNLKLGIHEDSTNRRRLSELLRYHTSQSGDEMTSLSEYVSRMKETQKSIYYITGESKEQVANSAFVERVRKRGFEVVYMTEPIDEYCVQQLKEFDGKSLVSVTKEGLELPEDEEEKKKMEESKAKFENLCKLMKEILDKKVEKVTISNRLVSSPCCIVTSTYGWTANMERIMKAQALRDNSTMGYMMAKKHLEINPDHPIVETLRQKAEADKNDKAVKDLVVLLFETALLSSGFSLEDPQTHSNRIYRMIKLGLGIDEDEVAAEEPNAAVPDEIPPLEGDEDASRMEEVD
UniProt P08238, whole entry: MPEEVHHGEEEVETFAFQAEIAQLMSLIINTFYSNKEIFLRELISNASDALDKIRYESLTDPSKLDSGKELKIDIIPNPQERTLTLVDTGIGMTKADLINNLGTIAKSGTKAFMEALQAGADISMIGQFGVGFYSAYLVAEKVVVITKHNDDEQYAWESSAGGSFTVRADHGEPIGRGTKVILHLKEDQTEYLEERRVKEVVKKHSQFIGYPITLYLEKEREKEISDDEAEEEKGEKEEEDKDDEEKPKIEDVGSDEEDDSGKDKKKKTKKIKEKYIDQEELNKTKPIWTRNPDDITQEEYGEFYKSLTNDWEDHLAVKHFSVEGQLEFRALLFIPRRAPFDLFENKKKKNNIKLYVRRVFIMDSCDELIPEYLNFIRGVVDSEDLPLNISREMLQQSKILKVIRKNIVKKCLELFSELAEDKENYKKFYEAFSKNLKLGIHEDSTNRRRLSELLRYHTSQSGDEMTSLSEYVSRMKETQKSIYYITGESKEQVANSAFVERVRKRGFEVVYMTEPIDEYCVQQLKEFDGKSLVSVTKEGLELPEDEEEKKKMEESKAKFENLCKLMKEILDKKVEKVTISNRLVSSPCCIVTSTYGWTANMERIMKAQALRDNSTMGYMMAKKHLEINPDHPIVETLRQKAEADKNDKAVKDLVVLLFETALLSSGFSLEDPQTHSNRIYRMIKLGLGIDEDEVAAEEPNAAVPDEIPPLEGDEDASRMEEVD

Key:
[1] = target: T1, HSP90AB1 (endogenous, 293T cells) (human, UniProt P08238); test: anti-FLAG immunoprecipitation from FLAG-SMYD2 293T cells, silver staining and mass spectrometry (FIG. 3A)
T1 construct: Endogenous protein of 293T cells; also called endogenous HSP90
Source text: (§1) [FIG. 3A-D] […] Part A depicts the silver staining of immunoprecipitates from FLAG-mock or FLAG-SMYD2 expressing cells. 293T cells were transfected with FLAG-Mock or FLAG-SMYD2 and immunoprecipitated using an anti-FLAG M2 agarose. Immunoprecipitates were subject to SDS-PAGE and silver staining, followed by mass spectrometry. Part B depicts that 293T cells were co-transfected with HA-HSP90AB1 or HA-Mock and FLAG-SMYD2 expression vectors, and HA-immunoprecipitates were immunoblotted with anti-FLAG and anti-HA antibodies. Part C depicts the interaction of FLAG-SMYD2 with endogenous HSP90. The interaction was confirmed by Western blot of FLAG-immunoprecipitates using anti-HSP90 and anti-FLAG antibodies. Part D depicts that the region included the SET domain of SMYD2 is required for interaction with HSP90AB1. 293T cells were co-transfected with an HA-HSP90AB1 expression vector and six different lengths of FLAG-SMYD2 expression vectors ([1-433], [1-100], [1-250], [100-433], [250-433] and [330-433]). Immunoprecipitation was performed using anti-HA agarose beads, and samples were immunoblotted with anti-FLAG and anti-HA antibodies.
(§2) In order to clarify how SMYD2 promotes cancer cell growth, the present inventors attempted to identify interacting partners of SMYD2. […]

HA-HSP90AB1 (WT) = target: T2, HA-HSP90AB1 (WT) (human, UniProt P08238); test: co-immunoprecipitation from co-transfected 293T cells, Western blot (FIG. 3B)
T2 construct: Expressed in 293T cells; also called HA-tagged HSP90AB1; not shown: HA tag
Source text: as §1, §2

binding result [1]: binds
binding result (HA-HSP90AB1 (WT)): binds
B1: FLAG-SMYD2 (enzyme)
chain: MRAEGLGGLERFCSPGKGRGLRALQPFQVGDLLFSCPAYAYVLTVNERGNHCEYCFTRKEGLSKCGRCKQAFYCNVECQKEDWPMHKLECSPMVVFGENWNPSETVRLTARILAKQKIHPERTPSEKLLAVKEFESHLDKLDNEKKDLIQSDIAALHHFYSKHLGFPDNDSLVVLFAQVNCNGFTIEDEELSHLGSAIFPDVALMNHSCCPNVIVTYKGTLAEVRAVQEIKPGEEVFTSYIDLLYPTEDRNDRLRDSYFFTCECQECTTKDKDKAKVEIRKLSDPPKAEAIRDMVRYARNVIEEFRRAKHYKSPSELLEICELSQEKMSSVFEDSNVYMLHMMYQAMGVCLYMQDWEGALQYGQKIIKPYSKHYPLYSLNVASMWLKLGRLYMGLEHKAAGEKALKKAIAIMEVAHGKDHPYISEIKQEIESH
notes: Expressed in 293T cells from a FLAG expression vector; full length SMYD2 (1-433); also called FLAG-SMYD2 (WT); FLAG-SMYD2 [1-433]; not shown: FLAG tag
